According to patent US12201649B2, “Pharmaceutical composition comprising oxidizable biphenol and manganese porphyrin, and method of using the same” (Villanova University, priority 2021, dated 2025):

Legend:
Jurkat cells [1] = experiment: mitochondrial ROS (superoxide) by MitoSOX Red flow cytometry; type: cell-based, human; conditions: 4 hours; for production of ROS in the mitochondria (MitoSOX Red): dtBQ or dtBHQ at 5 μM in the presence or absence of 12 μM MnTMPyP
Method: Referring to FIGS. 9 and 13, Jurkat cells were treated with the indicated compounds for 4 hours in RPMI with 10% FBS. Mitochondrial ROS were measured using the MitoSOX Red dye, which enters living cells, targets the mitochondria, and is preferentially oxidized by superoxide. Fluorescence was read on an Accuri C6 flow cytometer with excitation from a 488 nm laser and an FL2 filter. 10,000 events were acquired. Flow cytometry data was analyzed using Flowlogic software. Samples were gated using forward and side scatter to exclude debris, and the signal intensity versus number of events was plotted.
Referring to FIG. 9, tBQ alone is sufficient to cause apoptosis in Jurkat cells. The result is unaffected by inclusion of MnTMPyP. […] Levels of mitochondrial superoxide were quantified using MitoSOX Red and measured on the flow cytometer, with n=2 (technical replicates).
Levels of mitochondrial superoxide were quantified using MitoSOX Red and measured on the flow cytometer, with n=2 (technical replicates).

[2] = test system: PC3 prostate cancer cells; conditions: dtBHQ at 15 μM in the presence or absence of 2 μM Mn2BuOE, 24 hours
Jurkat cells [3] = experiment: apoptosis (Annexin-PE) and necrosis (RedDot 2) by flow cytometry, 4 hours; type: cell-based, human; conditions: 5 μM dtBHQ or dtBQ in the presence or absence of 12 μM MnTMPyP
Method: Referring to FIGS. 4, 5, 6, 8, 12 and 15, cells were treated with the indicated compounds or vehicle for 4 hours in RPMI medium with 10% fetal bovine serum (FBS). RPMI medium, also known as RPMI 1640, is a growth medium used in cell culture. In these and other figures, “vehicle” represents when a treatment compound is omitted and replaced with the vehicle that the compound is dissolved in. Thus, when a MnP is omitted, water is added in its place. When an oxidizable phenol is omitted, DMSO is added for a resulting final concentration in the cell media of 0.05% DMSO. Apoptosis was measured using Annexin-PE, and necrosis was measured with RedDot 2. Fluorescence was read on an Accuri C6 flow cytometer with excitation from a 488 nm laser, and FL2 and FL4 filters were used for Annexin-PE and RedDot2, respectively. […] Flow cytometry data was analyzed using Flowlogic software from Inivai Technologies of Australia. […] Percentage of alive, apoptotic, or necrotic cells was determined and graphed as the average±the standard deviation.
The combination of tBHQ and MnTMPyP is toxic to Jurkat cells, a CD4+ T-cell leukemic cell line. […] Cells that were alive, apoptotic or necrotic were determined using flow cytometry. Two specimens (biological duplicates) were measured for each sample.
Cells that were alive, apoptotic or necrotic were determined using flow cytometry, with n=2 (biological duplicates). […]

`CC(C)(C)c1cc(O)c(C(C)(C)C)cc1O` [dtBHQ, 2,5-di-tert-butyl hydroquinone] was tested, and the “production of ROS in the mitochondria (MitoSOX Red)” value (Jurkat cells [1]) was “no production of ROS in the mitochondria” and the “toxicity to PC3 prostate cancer cells” value [2] was “no toxicity”.
With `CC(C)(C)C1=CC(=O)C(C(C)(C)C)=CC1=O` [dtBQ, 2,5-di-tert-butyl quinone, reference compound] the “toxicity to Jurkat cells” value (Jurkat cells [3]) was “no toxicity” and the “production of ROS in the mitochondria (MitoSOX Red)” value (Jurkat cells [1]) was “no production of ROS in the mitochondria”.
For `CC(C)(C)c1cc(O)ccc1O` [tBHQ, tert-butylhydroquinone], the “mitochondrial ROS (superoxide, MitoSOX Red)” value (Jurkat cells [1]; tBQ or tBHQ at 5 μM in the presence or absence of 12 μM MnTMPyP) was “no mitochondrial ROS formation”.
